The results in this text go back to patent publication US7598397B2, “Sulfonamide peri-substituted bicyclics for occlusive artery disease” (deCODE genetics ehf, priority 2004, dated 2009).

Sequences of proteins named here, by UniProt entry; tags and fusion partners are left off.
UniProt P43115, whole entry: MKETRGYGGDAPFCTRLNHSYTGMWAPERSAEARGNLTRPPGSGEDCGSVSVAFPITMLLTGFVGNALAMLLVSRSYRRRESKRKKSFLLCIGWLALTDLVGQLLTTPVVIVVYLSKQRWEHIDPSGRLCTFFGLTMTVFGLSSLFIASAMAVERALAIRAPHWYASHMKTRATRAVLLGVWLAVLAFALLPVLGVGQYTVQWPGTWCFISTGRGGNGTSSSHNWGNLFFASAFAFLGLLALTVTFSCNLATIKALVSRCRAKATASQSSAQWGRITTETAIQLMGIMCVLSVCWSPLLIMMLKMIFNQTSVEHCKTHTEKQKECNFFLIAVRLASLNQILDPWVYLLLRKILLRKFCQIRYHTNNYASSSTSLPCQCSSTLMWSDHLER

The target in this assay is prostanoid EP3 receptors (Homo sapiens, UniProt P43115). Kind of assay: binding on prostanoid EP3 receptors (method of Abramovitz et al.). The note with it: read-out: Activity (EP3 receptor binding, IC50 class).

The IC50 is the point on the concentration scale where inhibition reaches its midpoint. For `CC12CCCC(CCC(=O)NS(=O)(=O)c3cc(F)c(F)cc3F)=C1N(Cc1ccc(F)c(F)c1)C(=O)C2` (centres unmarked), the IC50 is less than 1000 nM.

For `CC12CCCC(/C=C/C(=O)NS(=O)(=O)c3cc(F)c(F)cc3F)=C1N(Cc1ccc(F)c(F)c1)C(=O)C2` (centres unmarked), the IC50 was less than 1000 nM.

On to `Cc1cn(Cc2ccc(Cl)cc2Cl)c2c(C(=O)NS(=O)(=O)c3cc(Cl)c(Cl)s3)cc(F)cc12`, for which the IC50 is less than 1000 nM.

For the compound `O=C(/C=C/c1cccc2c1N(Cc1ccc(Cl)cc1Cl)C(=O)C2)NS(=O)(=O)c1cccs1`, the IC50 was less than 1000 nM. On to `CC(C)(Oc1cccc2[nH]cc(Cc3ccc4ccccc4c3)c12)C(=O)NS(=O)(=O)c1cc(Cl)c(Cl)s1`, for which the half-inhibitory concentration (IC50) was less than 1000 nM. The same measure for `CN1C(=O)C(NC(=O)c2ccc3ccccc3c2)c2c(OCC(=O)NS(=O)(=O)c3cc(Cl)c(Cl)s3)cccc21` (centres unmarked): less than 1000 nM; for `O=C(/C=C/c1cccc2c1C(Nc1ccc(F)c(F)c1)C(=O)N2)NS(=O)(=O)c1cc(Cl)c(Cl)s1` (centres unmarked): less than 1000 nM; for `CC(Oc1cccc2[nH]cc(Cc3ccc4ccccc4c3)c12)C(=O)NS(=O)(=O)c1cc(Cl)c(Cl)s1` (centres unmarked): less than 1000 nM. Then `O=C(COc1cccc2occ([S+]([O-])c3ccc4ccccc4c3)c12)NS(=O)(=O)c1cc(Cl)c(Cl)s1` (centres unmarked), with less than 1000 nM; and `O=C(COc1cccc2occ(Sc3ccc4ccccc4c3)c12)NS(=O)(=O)c1cc(Cl)c(Cl)s1`, with less than 1000 nM; and `CN1C(=O)C(Nc2ccc(F)cc2F)c2c(C=CC(=O)NS(=O)(=O)c3cc(Cl)c(Cl)s3)cccc21` (centres unmarked), with less than 1000 nM.

Regarding `CN1C(=O)c2[nH]nc(Cc3ccc(Cl)cc3Cl)c2C1/C=C/C(=O)NS(=O)(=O)c1cc(Cl)c(Cl)s1` (centres unmarked), the half-inhibitory concentration (IC50) lay within 1000 to 10000 nM. The same measure for `CCn1c(Sc2coc3cccc(OCC(=O)NS(=O)(=O)c4cc(Cl)c(Cl)s4)c23)nc2ccccc21`: less than 1000 nM. Then `O=C(COc1cccc2c1N(Cc1cccc(OC(F)(F)F)c1)C(=O)CO2)NS(=O)(=O)c1cccs1`, with 1000 to 10000 nM; and `CN1C(=O)c2[nH]nc(Cc3ccc(Cl)cc3Cl)c2C1CCC(=O)NS(=O)(=O)c1cc(Cl)c(Cl)s1` (centres unmarked), with 1000 to 10000 nM.

For `O=C(CCc1cccc2c1C(Cc1ccc3ccccc3c1)C(=O)N2)NS(=O)(=O)c1cc(Cl)c(Cl)s1` (centres unmarked), the IC50 is less than 1000 nM. The same measure for `Cn1cc(/C=C/C(=O)NS(=O)(=O)c2cc(F)c(F)cc2F)c2c(Oc3ccc(Cl)cc3Cl)cccc21`: less than 1000 nM.

As to `COc1cccc(CN2C(=O)CC3(C)CCCC(CCC(=O)NS(=O)(=O)c4cc(F)c(F)cc4F)=C23)c1` (centres unmarked), the IC50 is less than 1000 nM.

As to `O=C(/C=C/c1cccc2c1N(Cc1ccc(Cl)cc1Cl)C(=O)C2(F)F)NS(=O)(=O)c1cc(Cl)c(Cl)s1`, the IC50 is less than 1000 nM. For the compound `CC(C)c1cn(Cc2ccc(Cl)cc2Cl)c2c(CCC(=O)NS(=O)(=O)c3cc(Cl)c(Cl)s3)cccc12`, the IC50 was less than 1000 nM. Then `[2H]C([2H])([2H])c1cn(C([2H])([2H])c2ccc(Cl)cc2Cl)c2c(/C=C/C(=O)NS(=O)(=O)c3cc(Cl)c(Cl)s3)cc(F)cc12`, with less than 1000 nM; and `Cc1cn(Cc2ccc(Cl)cc2Cl)c2c(C(=O)C(=O)NS(=O)(=O)c3cc(F)c(F)cc3F)cc(F)cc12`, with 1000 to 10000 nM. As for `CN1C(=O)C(=Nc2ccc(Cl)cc2Cl)c2c(/C=C/C(=O)NS(=O)(=O)c3cc(Cl)c(Cl)s3)cccc21`, the IC50 was less than 1000 nM. Regarding `Cc1cn(Cc2ccc(Cl)cc2Cl)c2c(/C=C/C(=O)NS(=O)(=O)c3cccs3)cc(F)cc12`, the 50% inhibitory concentration (IC50) is less than 1000 nM. Turning to `O=C(COc1cccc2c1N(Cc1cccc(C(F)(F)F)c1)C(=O)CO2)NS(=O)(=O)c1cccs1`, the concentration for half-maximal inhibition (IC50) lay in the range of 1000 to 10000 nM.

As to `O=C(/C=C/c1cccc2c1N(Cc1ccc(Cl)cc1Cl)C(=O)C21OCCO1)NS(=O)(=O)c1cc(Cl)c(Cl)s1`, the IC50 is less than 1000 nM.
